This assay deals with Tryptophan 2,3-dioxygenase (Homo sapiens, UniProt P48775).

Amino acid sequences for entries named in this document (tags omitted). A change or cut given only in a name is not applied to a line headed by its entry.
UniProt P48775: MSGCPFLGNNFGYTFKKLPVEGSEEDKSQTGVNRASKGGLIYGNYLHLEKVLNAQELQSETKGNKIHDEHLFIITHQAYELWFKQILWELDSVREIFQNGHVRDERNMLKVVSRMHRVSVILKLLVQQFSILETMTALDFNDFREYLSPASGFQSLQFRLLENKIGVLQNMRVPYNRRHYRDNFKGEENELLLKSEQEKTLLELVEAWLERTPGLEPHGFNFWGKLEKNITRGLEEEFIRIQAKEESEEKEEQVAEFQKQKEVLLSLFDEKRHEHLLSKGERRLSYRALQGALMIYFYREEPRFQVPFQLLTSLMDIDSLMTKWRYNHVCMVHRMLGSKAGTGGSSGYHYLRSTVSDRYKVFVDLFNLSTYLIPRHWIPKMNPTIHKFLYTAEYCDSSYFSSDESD

For `Fc1ccc2c(/C=C/c3cccnc3)c[nH]c2c1`, the midpoint of inhibition, the IC50, lay at 280 nM.

For the origin of these results see ChEMBL document CHEMBL3627665, “Challenges and Opportunities in the Discovery of New Therapeutics Targeting the Kynurenine Pathway” (J Med Chem, 2015).
